# Glioma ERSR ind = inducers of ER stress response in human glioma cells; U87-MG GRP78 promoter luciferase reporter, 16 h; Potency, µM, for the others: at the top dose activation, most hits filed as activators; 420,000 compounds, 0.02% hits; note: potency is the fitted concentration of half-maximal effect; series mostly up to about 76 µM; % of control where 0% means no effect; nearly all actives have a fitted effect of over 35% in size
#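 ERSR induction read as luciferase luminescence (Bright-Glo, 10 min at room temperature) in stably transfected human U87-MG glioma cells exposed to compounds for 16 h, using GRP78 as sensor.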
# Nrf2 activator = activates Nrf2 signaling. AREc32 ARE-luciferase reporter (MCF7-derived line), luminescence, 24 h. Potency, µM (series often up to 46.1 µM), inactives show top-dose activation, actives largely listed as activators. 410,000 compounds, 0.31% hits; note: potency is the fitted concentration of half-maximal effect; % of control where 0% means no effect; nearly all actives have a fitted effect of over 65% in size
#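 ARE activation measured as luciferase luminescence (Steady-Glo, 30 min RT) in AREc32_Fluc cells after 24 hr compound exposure at 37 deg C, 5% CO2; cells seeded overnight at 1000/well in OPTI-MEM, 5% FBS.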
# miR-21 reporter = miR-21 reporter, rising signal; 340,000 tested, under 10 active; Potency, µM (highest dose often 38.3 µM), for the others: top-dose reporter change, positive = more light; HeLa miR-21 FLuc reporter, luciferase, 48 h; active = well fitted rising curve with a large enough effect; inconclusive = small, poorly fitted or top-dose-only effect; inactive = no such curve, though single readings can be large or run the other way;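 further: % of control where 0% means no effect; miR-21 action dims this reporter so a rising signal means less miR-21 action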
#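 HeLa cells stably expressing CMV-driven firefly luciferase with a downstream miR-21 binding sequence, endogenously expressing miR-21, were treated with titrations (up to about 40uM final) for 48 hours at 37 degree Celsius. Luciferase luminescence was read after lysis.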
# Mito fusion act = mitochondrial division inhibition or fusion activation; S. cerevisiae fusion-defective mutant growth rescue, CellTiterGlo 48 h; Potency, µM (titrated, usually from 46.1 µM), without a hit: at the highest dose growth rescue (activation), most hits filed as activators; 320,000 compounds, 0.23% hits; AID 485298; note: potency is the fitted concentration of half-maximal effect; % of control where 0% means no effect; nearly all actives have a fitted effect of over 45% in size
#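 Read-out: ATP-based luminescence (CellTiterGlo, 10 min ambient) reporting growth of fusion-defective ts yeast after 48 hours at 37C on glycerol/ethanol YPEG medium in the presence of compound.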
# Nrf2 block = Nrf2 pathway inhibition | 360,000 compounds, 2.1% hits | Potency, µM (series often up to 46 µM), for inactives: top-dose activity change, negative = inhibition, hits mostly inhibitors | A549 ARE-Fluc reporter, luciferase luminescence, 18-24 h; note: potency is the fitted concentration of half-maximal effect; % is set by controls: 0 for no effect and ±100 for the full control effect; nearly all actives have a fitted effect of over 60% in size
#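 A549 ARE_Fluc cells, 5000/well, 5% FBS OPTI-MEM; compounds in dose-response, 18-24 h at 37 °C/5% CO2; CellTiter-Fluor viability read (Ex 405/Em 525), then BugLite luciferase luminescence = Nrf2 activity.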
# A549 viability = A549 cytotoxicity, counter-screen for Nrf2 inhibitors; 390,000 compounds, 0.16% hits; AID 504648; A549 ARE-Fluc cells, CellTiter-Fluor viability, 18-24 h; Potency, µM (top dose mostly 46 µM), without a hit: at the top dose activity change, negative = cytotoxicity, hits mostly inhibitors; note: potency is the fitted concentration of half-maximal effect; % is set by controls: 0 for no effect and ±100 for the full control effect
#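 Cytotoxicity counterscreen: CellTiter-Fluor fluorescence was measured in A549 ARE_Fluc cells after 18-24 h of compound exposure in a concentration series. The subsequent BugLite luminescent read reports ARE-luciferase activity.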
# An asterisk follows results filed as active; ? = inconclusive; · = no result given; ! = not active in a repeat. An excerpt weighted towards active compounds, which were near 2.3% of everything screened. Unless noted, calls come from the whole dose curve; as a rule, active = well fitted curve in the direction sought with a large enough effect; inconclusive = small, poorly fitted or top-dose-only effect, or another doubt; inactive = no such curve, though single readings can be large; an effect the other way counts as inactive or inconclusive.
1) Cc1ccc2nsnc2c1-n1c(C)nc2ccccc2c1=O
2) N#CC(C#N)=NNc1ccc([N+](=O)[O-])cc1
3) Cc1cccc(C)c1-n1nnnc1C(c1cccs1)N1CCC2(CC1)C(=O)NCN2c1ccccc1 (stereo not given)
4) CCCC(C)c1nnc(NC(=O)CCS(=O)(=O)c2ccccc2)s1 (stereo not given)
5) CC(O)(CS(=O)(=O)c1ccccc1)C(=O)Nc1ccc(C(F)(F)F)cc1 (stereo not given)
6) c1ccc2c(N3CCNCC3)nsc2c1

screen / no. | 1 | 2 | 3 | 4 | 5 | 6
Glioma ERSR ind | -4.1% | -1.0% | -2.8% | -15.2% | -5.5% | -8.2%
Nrf2 activator | -0.1% | 7.8% | 0.5% | 22.4µM* | 0.1% | 6.5%
miR-21 reporter | -11.1% | 10.8% | · | 13.6% | 1.0% | 6.7%
Mito fusion act | 0.8% | 27.9% | · | -0.3% | -2.4% | -2.2%
Nrf2 block | 1.8% | -3.4% | · | 1.5% | · | ?
A549 viability | 4.7% | 20.6µM* | · | 0.6% | 8.4% | -0.1%

7) C[C@@H]1O[C@@H](O[C@@H]2C=C3CCC4C(CC[C@]5(C)[C@@H](c6ccc(=O)oc6)CC[C@]45O)[C@@]3(C)CC2)[C@H](O)[C@H](O)[C@H]1O (stereo not given in full)
8) C[C@@H]1O[C@@H](O[C@@H]2C=C3CC[C@@H]4C(CC[C@]5(C)[C@@H](c6ccc(=O)oc6)CC[C@]45O)[C@@]3(C)CC2)[C@H](O)[C@H](O)[C@H]1O (stereo not given in full)
9) c1ccc(CCN2CCCC2)cc1
10) COc1ccc(OC)c([C@@H](O)[C@H](C)NC(C)(C)C)c1
11) CN1C(=O)N(C)C(=O)C2(Cc3c(nc4ccccn4c3=O)N3CCC(Cc4ccccc4)CC32)C1=O (stereo not given)
12) Cc1cccn2c(=O)c3c(nc12)N1CCC(Cc2ccccc2)CC1C1(C3)C(=O)N(C)C(=O)N(C)C1=O (stereo not given)

screen / no. | 7 | 8 | 9 | 10 | 11 | 12
Glioma ERSR ind | -6.3% | -7.2% | -4.4% | -1.9% | · | -2.1%
Nrf2 activator | -2.4% | -3.2% | · | 0.4% | · | 0.1%
miR-21 reporter | · | · | · | -7.2% | -3.4% | -0.3%
Mito fusion act | -2.3% | -4.3% | · | 5.6% | 15.7% | 17.8µM*
Nrf2 block | ? | 0.0231µM* | · | 14.1% | · | ?
A549 viability | ? | ? | · | -1.7% | · | -30.0%

13) c1ccc(N2CCN(c3ncnc4c3nc3n4CCCCC3)CC2)cc1
14) Fc1ccc(N2CCN(c3ncnc4c3nc3n4CCCCC3)CC2)cc1
15) Clc1ccccc1CN1CCN(c2ccccc2)CC1
16) CC(C)(C)c1nc(N2CCN(C(=O)c3ccco3)CC2)c2nnn(Cc3ccccc3Cl)c2n1
17) Cc1nn(Cc2ccccc2Cl)c(Cl)c1C(=O)O
18) COC1=CC2C3Cc4ccc(OC)c(O)c4[C@]2(CCN3C)CC1=O (stereo not given in full)

screen / no. | 13 | 14 | 15 | 16 | 17 | 18
Glioma ERSR ind | -1.7% | -2.0% | -4.0% | -4.8% | -4.4% | -5.2%
Nrf2 activator | -0.4% | -0.6% | -0.8% | 0.7% | -0.2% | ·
miR-21 reporter | ? | 1.7% | -5.0% | 0.1% | -0.8% | ·
Mito fusion act | · | · | 3.4% | 3.0% | 3.1% | ·
Nrf2 block | 23.1µM* | 8.2µM* | -16.3% | 18.4µM* | 2.0% | ·
A549 viability | -16.0% | 1.0% | -6.8% | 2.3% | 8.0% | ·

19) Cc1cc(C)c2c(ccc3cccc[n+]32)c1
20) CN1C2CCC1C(C(=O)O)C(O)C2 (stereo not given)
21) COC(=O)C1=C(c2ccc(C(C)=O)cc2)C[C@@H]2CC[C@H]1N2C(=O)N1CCC(C)CC1
22) COC(=O)C1=C(c2ccc(C(C)=O)cc2)C[C@@H]2CC[C@H]1N2C(=O)N1CCC(O)(c2ccc(Cl)cc2)CC1
23) CCOc1ccc2nc(N=Nc3c(O)[nH]c(=S)[nH]c3=O)sc2c1
24) CC1(C)C(C(=O)N2CCN(C(=O)c3ccccc3)CC2)C1(C)C

screen / no. | 19 | 20 | 21 | 22 | 23 | 24
Glioma ERSR ind | -2.9% | -5.1% | -0.8% | -5.2% | 0.4% | -1.9%
Nrf2 activator | -0.8% | 0.8% | 1.3% | 5.6% | 0.3% | -0.6%
miR-21 reporter | · | · | · | · | -0.6% | 2.0%
Mito fusion act | · | · | 10.3% | 7.0% | 1.8% | 3.9%
Nrf2 block | 1.3µM* | 5.3% | 0.5% | 23.1µM* | 18.5% | 5.0%
A549 viability | ? | -12.6% | 1.7% | -16.3% | 23.1µM* | -2.4%

# Full records, quoted from the list.
# `C[C@@H]1O[C@@H](O[C@@H]2C=C3CCC4C(CC[C@]5(C)[C@@H](c6ccc(=O)oc6)CC[C@]45O)[C@@]3(C)CC2)[C@H](O)[C@H](O)[C@H]1O` (stereo not given in full) as listed: Glioma ERSR ind: -6.3%; Nrf2 activator: -2.4%; miR-21 reporter: ·; Mito fusion act: -2.3%; Nrf2 block: ?; A549 viability: ?
# `c1ccc2c(N3CCNCC3)nsc2c1` as listed: Glioma ERSR ind: -8.2%; Nrf2 activator: 6.5%; miR-21 reporter: 6.7%; Mito fusion act: -2.2%; Nrf2 block: ?; A549 viability: -0.1%

# Further entries.
25) C=C1C(=O)O[C@@H]2C[C@@H](C)[C@@H]3C=CC(=O)[C@@]3(C)[C@@H](OC(C)=O)[C@H]12
26) C=C1C(=O)O[C@@H]2C[C@@H](C)[C@@H]3C=CC(=O)[C@@]3(C)[C@@H](O)[C@H]12
27) CN1C2CC(=O)CC1C(O)C2 (stereo not given)
28) O=C1C=CC(=O)c2c(O)cccc21
29) O=C(CN1CC(c2ccccc2)CC1=O)Nc1ccccc1 (stereo not given)
30) C[C@@H]1O[C@H](O[C@@H]2C[C@@H](O)[C@]3(CO)[C@H]4[C@H](O)C[C@]5(C)[C@@H](C6=CC(=O)OC6)CC[C@@]5(O)[C@@H]4CC[C@]3(O)C2)[C@@H](O)[C@H](O)[C@H]1O

screen / no. | 25 | 26 | 27 | 28 | 29 | 30
Glioma ERSR ind | -11.9% | -4.1% | -3.1% | -1.6% | -1.6% | -6.5%
Nrf2 activator | -2.6% | -2.9% | · | · | 0.2% | ·
miR-21 reporter | ? | ? | · | · | 0.8% | ·
Mito fusion act | -59.3% | -43.8% | · | · | -1.6% | ·
Nrf2 block | 4.11µM* | 3.66µM* | · | · | -11.9% | ·
A549 viability | 9.2µM* | 9.2µM* | · | · | 4.3% | ·

31) CCn1nc(-c2cccs2)nc2c(=O)n(C)c(=O)nc1-2
32) CCn1nc(/C=C/c2ccccc2)nc2c(=O)n(C)c(=O)nc1-2
33) CCCCn1c(O)c(C(C)=NCc2cc(OC)cc(OC)c2)c(=O)[nH]c1=O
34) O=C(C1CCN(S(=O)(=O)c2ccc(Br)s2)CC1)N1CCN(c2cccc(C(F)(F)F)c2)CC1
35) NC(=O)c1cc([N+](=O)[O-])cc([N+](=O)[O-])c1
36) CC(C)(C)c1cc([N+](=O)[O-])cc(C(C)(C)C)c1O

screen / no. | 31 | 32 | 33 | 34 | 35 | 36
Glioma ERSR ind | -17.3% | -12.3% | -1.2% | -0.8% | -1.6% | -0.8%
Nrf2 activator | -3.9% | -2.8% | 2.3% | -0.1% | -1.2% | 0.0%
miR-21 reporter | 0.3% | -17.1% | 3.5% | -1.1% | · | 28.1%
Mito fusion act | -27.1% | -1.5% | 7.3% | · | · | -3.3%
Nrf2 block | 5.17µM* | ? | ? | 2.91µM* | -18.4% | 18.4µM*
A549 viability | 1.46µM* | 5.8µM* | -4.6% | -10.9% | 0.5% | ?

37) O=c1[nH]cc(F)c(=O)[nH]1
38) O=c1[nH]cc(N(CCCl)CCCl)c(=O)[nH]1
39) O=C(COc1ccc(Cl)cc1)N1CCN(C2CCCC2)CC1
40) CC1N(C)c2cc(NC(=O)c3ccco3)c(P(=O)(Nc3ccc([N+](=O)[O-])cc3)N3CCOCC3)cc2C1(C)C (stereo not given)
41) O=C(c1ccco1)N1CCN(C(=O)c2ccc(COc3ccc(Cl)cc3Cl)o2)CC1
42) O=C1Nc2ccc(Br)cc2C(c2ccccc2Cl)=NC1O (stereo not given)

screen / no. | 37 | 38 | 39 | 40 | 41 | 42
Glioma ERSR ind | -3.8% | 3.9% | 0.5% | -1.8% | -3.5% | -0.5%
Nrf2 activator | -1.0% | · | 0.0% | 3.8% | 7.4% | -0.8%
miR-21 reporter | 5.6% | · | -5.6% | 21.3% | · | -2.3%
Mito fusion act | 2.91µM*! | · | -7.6% | -25.2% | · | 1.7%
Nrf2 block | ? | · | 25.8% | 16.4µM* | 25.9µM* | -18.6%
A549 viability | -14.3% | · | -6.0% | 20.6µM* | -25.1% | 8.1%
